Data as given in ChEMBL document CHEMBL4837200, “Discovery of Orally Bioavailable Purine-Based Inhibitors of the Low-Molecular-Weight Protein Tyrosine Phosphatase” (J Med Chem, 2021).

Target: T1, Low molecular weight phosphotyrosine protein phosphatase (Homo sapiens) (UniProt P24666)
T1 sequence (whole entry): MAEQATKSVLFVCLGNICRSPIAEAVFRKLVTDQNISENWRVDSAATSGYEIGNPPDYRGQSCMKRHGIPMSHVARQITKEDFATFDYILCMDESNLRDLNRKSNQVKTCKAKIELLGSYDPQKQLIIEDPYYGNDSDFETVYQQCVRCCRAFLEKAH

Work on Cc1ccccc1-c1nc2c(N)ncn(Cc3c(Cl)cccc3Cl)c-2n1 yielded an alphaKi of 0.147.
